Assay results reported in patent publication US6004972A, “Therapeutic process for the treatment of the pathologies of type II diabetes” (The Board of Supervisiors of Louisiana State University and …, priority 1998, dated 1999).

System: noninsulin dependent (Type II) diabetes
Experiment: Timed oral bromocriptine in fifteen persons with noninsulin dependent (Type II) diabetes (Example 5)
Format: in vivo, human
Conditions: subjects receiving insulin (7), 4-8 weeks
Procedure: Fifteen persons, diagnosed with noninsulin dependent (Type II) diabetes, were treated with bromocriptine to determine the effects of the treatments on body fat and hyperglycemia. […]
Bromocriptine was taken orally daily at times calculated to reset circadian hormone rhythms to phase relationships that cause loss of body fat. Generally, bromocriptine was administered in the morning within 5 hours after awakening. Nausea was usually avoided by starting with the lower dosage (1.25 mg) for 2-3 days and then raising the dosage levels to 2.5 mg daily. Only mild nausea was observed by less that 10% of the participants and was transient, lasting only for the first few days. The participants were carefully instructed not to alter their daily activity or eating habits during the course of treatment.
Skinfold thickness was measured on the left side of the body by a trained anthropometrist in four regions: biceps, triceps, subscapular, and suprailiac, following the recommendations of the International Biological Program. Because of its frequent use, percent body fat was estimated from the common logarithm of the sum of the four skinfolds, using the equations of Durnin and Rahman and of Siri. […] Blood pressure was also determined at these times. Morning fasting plasma glucose in the diabetic group was determined initially and after 4-8 weeks.

CC(C)C[C@H]1C(=O)N2CCC[C@H]2[C@]2(O)O[C@](NC(=O)[C@@H]3C=C4c5cccc6[nH]c(Br)c(c56)C[C@H]4N(C)C3)(C(C)C)C(=O)N12 [bromocriptine, 2-bromo-alpha-ergocryptine]
Total Body Weight, final (initial 182 ± 9): 182 ± 10 pounds
Plasma Glucose, final (fasting) (initial 283 ± 14, p < 0.05): 184 ± 22 mg/dL
